The structures appear in SMILES notation. The entries are a selection whose mix differs from that of the whole data set. Calls of active or inactive are those of the source. No stated cut-off is given here; in the data, active means inhibition above about 30%; inactive means the rest.

The record followed here is PubChem BioAssay AID739 (SRMLSC, 2007).

The nature of the test: phenotypic screen on post-Golgi transport, primary screen (AID 739).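 Further: yeast cells grown in 1536-well plates; yeast grown about 18 h at 30C before absorbance read.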 Particulars: post-Golgi transport phenotypic cell assay; at 10 µM; stronger effect = higher value.
The inhibition is the relative decrease from the control value, in per cent. Turning to `CP(=O)(OC12CC3CC(CC(C3)C1)C2)OC12CC3CC(CC(C3)C1)C2`, the inhibition is inactive: -0.16%.

In the case of `CCN(CC)CC(O)COC(=O)C(O)(c1ccccc1)C1CCCCC1` (configuration not stated), the inhibition is inactive: -6.25%.

Regarding `CP(=O)(Oc1ccccc1)N1CCOC1=O` (configuration not stated), the inhibition is inactive: 0.97%.

On to `CC(C)(C)c1ccc(OP(C)(=O)O)cc1`, for which the inhibition is inactive: -9.5%.

Turning to `CP(=O)(Nc1ccc(Cl)cc1)Oc1ccc(F)cc1` (configuration not stated), the inhibition is inactive: 2.08%.

Turning to `COc1ccc(OP(C)(=O)Nc2ccccn2)cc1` (configuration not stated), the inhibition is inactive: -0.16%.

With `CN(C)CCOC(=O)C(O)(c1ccccc1)C1CCCC1` (configuration not stated), the inhibition is inactive: 0.78%.

On to `Cc1c(NP(C)(=O)Oc2ccc(C(C)C)cc2)c(=O)n(-c2ccccc2)n1C` (configuration not stated), for which the inhibition was inactive: 4.38%.

Take `COc1ccccc1OP(C)(=O)Nc1ccc(C)cc1C` (configuration not stated): the inhibition was inactive: -0.65%.

In the case of `CP(=O)(Nc1ccccn1)Oc1ccccc1` (configuration not stated), the inhibition is inactive: 7.93%.

As to `CCc1ccc(OP(C)(=O)O)cc1`, the inhibition is inactive: 16.8%.

In the case of `COc1ccccc1OP(C)(=O)Nc1ccc(C)c(C)c1` (configuration not stated), the inhibition is inactive: 3.29%.

As to `Cc1nc2ccc3ccccc3c2o1.O=[N+]([O-])c1cc([N+](=O)[O-])c(O)c([N+](=O)[O-])c1`, the inhibition is inactive: -2.58%.

Regarding `CP(=O)(Nc1ccccc1)Oc1ccc(F)cc1` (configuration not stated), the inhibition is inactive: -4.97%.

For `CP(=O)(Nc1ccccc1F)Oc1ccccc1` (configuration not stated), the inhibition is inactive: 4.97%.

Turning to `CCOP(C)(=S)SCC(=O)NC(C)(CC)C(=O)O` (configuration not stated), the inhibition was active: 51.8%.

In the case of `CP(=O)(Nc1ccc2c(c1)OCCO2)Oc1ccccc1` (configuration not stated), the inhibition is inactive: -5.06%.

Consider `Cc1ccccc1NP(C)(=O)Nc1ccccc1C`, for which the inhibition is inactive: -4.73%.

Regarding `COc1ccc(OP(C)(=O)Nc2cccc(Br)c2)cc1` (configuration not stated), the inhibition is inactive: -2.12%.

As for `CN(C)CCOC(=O)C(O)(c1ccccc1)C1CCCCC1` (configuration not stated), the inhibition was inactive: 7.44%.

`COc1ccccc1OP(C)(=O)Nc1c(C)cccc1C` (configuration not stated): the inhibition was inactive: -7.66%.

In the case of `Cc1nc2ccc3ccccc3c2s1.O=[N+]([O-])c1cc([N+](=O)[O-])c(O)c([N+](=O)[O-])c1`, the inhibition was inactive: -3.71%.

With `Cc1cc(C)cc(OP(C)(=O)Nc2ccc(C)cc2C)c1` (configuration not stated), the inhibition is inactive: -3.42%.

As for `Cc1ccc(C)c(NP(C)(=O)Oc2ccccc2)c1` (configuration not stated), the inhibition is inactive: 26%.

As to `Cc1cc(C)cc(OP(C)(=O)Nc2ccccn2)c1` (configuration not stated), the inhibition is inactive: 8.69%.

With `Cc1ccc(NP(C)(=O)Oc2ccccc2)c(C)c1` (configuration not stated), the inhibition is inactive: 1.57%.

In the case of `COc1ccccc1OP(C)(=O)Nc1ccc(C)cc1` (configuration not stated), the inhibition was inactive: 2.97%.

For the compound `COc1ccc(OP(C)(=O)Nc2cccc(F)c2)cc1` (configuration not stated), the inhibition was inactive: 2.14%.

As to `CP(=O)(NC(=O)Nc1ccccc1)Oc1ccccc1` (configuration not stated), the inhibition was inactive: -3.67%.

In the case of `CCOP(C)(=S)SCC(=O)NC(C)C(=O)O` (configuration not stated), the inhibition was inactive: -15.9%.

As to `CP(=O)(Nc1ccccn1)Oc1ccc(Cl)cc1` (configuration not stated), the inhibition was inactive: 19.5%.

Regarding `CP(=S)(Nn1cnnc1)Oc1ccccc1` (configuration not stated), the inhibition was inactive: 17.4%.
